Measurements: ChEMBL document CHEMBL1153387 (J Med Chem, 2009)
pEC50, pIC50, pKi: −log10 of the molar value.

Sequences of proteins named here, by UniProt entry; tags and fusion partners are left off.
UniProt P30989, whole entry: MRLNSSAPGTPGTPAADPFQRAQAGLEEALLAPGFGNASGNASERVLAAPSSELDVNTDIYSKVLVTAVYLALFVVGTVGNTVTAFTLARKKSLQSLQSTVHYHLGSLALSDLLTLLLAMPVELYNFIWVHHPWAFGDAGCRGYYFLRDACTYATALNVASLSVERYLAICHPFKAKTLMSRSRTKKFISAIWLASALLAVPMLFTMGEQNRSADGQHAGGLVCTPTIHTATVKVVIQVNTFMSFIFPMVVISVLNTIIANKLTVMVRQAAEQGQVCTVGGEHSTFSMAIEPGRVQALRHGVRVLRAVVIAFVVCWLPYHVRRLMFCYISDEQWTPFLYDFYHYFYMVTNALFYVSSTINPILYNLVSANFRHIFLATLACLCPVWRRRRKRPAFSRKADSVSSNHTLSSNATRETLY

Tests used:
[1] = molecular target: T1, Neurotensin receptor type 1 (Homo sapiens, UniProt P30989); assay: Displacement of [125I]I-Tyr(3)NT from human NTR1
[2] = molecular target: T1, Neurotensin receptor type 1; assay: Agonist activity at NTR1 in human HT-29 cells assessed as increase in intracellular calcium concentration by FLIPR assay; assay type: functional, cell-based

Compound: CC[C@H](C)[C@H](NC(=O)[C@H](Cc1ccc(O)cc1)NC(=O)[C@@H]1CCCN1C(=O)[C@H](CCCNC(=N)N)NC(=O)[C@H](CCCNC(=N)N)NC(C)=O)C(=O)N[C@@H](CC(C)C)C(=O)O
- pIC50 [1]: 8.62
- pKi [1]: 8.74
- pEC50 [2]: 8.72
